Test system: Raw264.7 cells
Assay: Cell number (CellNb) from image analysis of the phenotypic cell-based assay

SMILES: C/C(=N/NC(=O)c1cc([N+](=O)[O-])cc([N+](=O)[O-])c1)c1ccc([N+](=O)[O-])o1
- QIM Confirm CellNb 0.2 uM (confirmation, 0.2 uM): 443.0
- QIM Confirm CellNb 2 uM (confirmation, 2 uM): 209.0
- QIM Confirm CellNb 20 uM (confirmation, 20 uM): 184.1
- Primary QIM CellNb (primary screen, 20 μM): 106.8

— US8785452B2, “Anti-infective compounds” (priority 2008, dated 2014)
